In article PMC7946667 (Cancer Chemotherapy and Pharmacology, 2021) one finds Tmax data, which are given here for two compounds.

For the data set, the system named is CYP2C9. As to conditions: median [min, max].
[1] abbreviates: warfarin 10 mg single oral dose + ceritinib 750 mg QD (Day 28).
Where [2] appears, read: warfarin 10 mg single oral dose alone (Day 1).

Like-named read-outs stand apart in the source and are kept apart here.

`CC(=O)C[C@H](c1ccccc1)c1c(O)c2ccccc2oc1=O` [R-warfarin]: the Tmax is 2.83 [0.250; 71.2] h under setting [1] and 1.98 [0.483; 21.7] h under setting [2].
For the compound `CC(=O)C[C@@H](c1ccccc1)c1c(O)c2ccccc2oc1=O` [S-warfarin], the Tmax by setting is: under setting [1], 2.75 [0.250; 6.40] h; under setting [2], 1.47 [0.483; 3.92] h.
